## Measured affinities in a library of Ab-14 light chain variants

Target peptide (SARS-CoV-2 spike, HR2 region): PDVDLGDISGINAS

The variants keep the heavy chain, the linker and the frameworks of Ab-14 (scFv order VH, a (GGGGS)3 linker, VL).
VH: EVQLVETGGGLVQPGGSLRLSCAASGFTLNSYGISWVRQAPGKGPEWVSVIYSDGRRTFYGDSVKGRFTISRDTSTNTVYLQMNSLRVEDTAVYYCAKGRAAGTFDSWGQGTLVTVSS
VL: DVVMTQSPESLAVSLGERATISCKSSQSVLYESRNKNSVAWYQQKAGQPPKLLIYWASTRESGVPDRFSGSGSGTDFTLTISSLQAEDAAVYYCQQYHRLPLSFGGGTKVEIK

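The variants were designed computationally from a first round of random CDR variants and then made and measured. Group labels follow the data file (En: ensemble of fine-tuned language models; GP: Gaussian process model; HC: hill climbing; Gen: genetic algorithm; Gibbs: Gibbs sampling; a sequence that several methods proposed may carry one label only). Affinity was read by AlphaSeq, a pooled yeast mating assay with surface-displayed partners. The frequency of each diploid, read from paired DNA barcodes, reflects how well the two displayed proteins bind. Each replicate has its own calibration line, from reference interactions of the BCL2 family. There are six technical replicates.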

Variants are written as CDR1, CDR2 and CDR3 of the light chain (limits as in the source). Parent: KSSQSVLYESRNKNSVA, WASTRES, QQYHRLPLS.
This list holds designs with more than six substitutions.
Kd is apparent (estimated from mating counts) and averaged on the log scale over replicates with a signal. Smaller is tighter.
Where no diploid with the target was found in any replicate, the entry reads "nd": below detection, most likely a poor binder, though not proof of it.

- TISQAAQQESHNKNSVA, DLSVRGS, QQYHRLPLS [En_HC]: 1.8 nM (6 of 6 replicates; controls 0 of 18)
- KISGYLNKESKATNNVA, EMVNRES, QQYDRLPLS [En_HC]: 17 nM (6 of 6 replicates; controls 2 of 18)
- HITMGMYVAGHHHSSIA, QAETREK, QQYDRLPLS [En_Gen]: 34 nM (6 of 6 replicates; controls 3 of 18)
- RYQMDDIEGKGARNNIA, DGAEVYR, QQYARLPLT [En_Gibbs]: 1.7 nM (6 of 6 replicates; controls 0 of 18)
- KLRMSTGYQSRNKDSIA, DNSTRGR, QQYHRLPLS [En_HC]: 490 nM (5 of 6 replicates; controls 1 of 18)
- KLDQSDLMESRNWNAVA, SASTREI, QQYHRLPLS [GP_Gibbs]: 4.3 nM (6 of 6 replicates; controls 0 of 18)
- KMQGSVMMLSRNVNSVA, QASTREQ, QQYHRLPLS [GP_Gibbs]: 2.1 nM (6 of 6 replicates; controls 1 of 18)
- KISQNMGETQRNKNSVA, EVSTVPY, QQYWRLPLS [En_HC]: 56 nM (6 of 6 replicates; controls 1 of 18)
- TISQTAQQESHNKNSVA, DLNVRGS, QQYDRLPLS [En_HC]: 110 nM (5 of 6 replicates; controls 2 of 18)
- KARQSELYESRNQNSVA, NASQRLE, QQYHRLPLS [GP_Gibbs]: 1.2 nM (6 of 6 replicates; controls 2 of 18)
- SLSPFMDTYNQKYDSVA, DTANIDI, QQYDRLPLS [En_Gibbs]: 34 nM (1 of 6 replicates; controls 0 of 18)
- KLSLGLGVQKQVEKNIA, NERLKIA, QQYDRLPLT [En_Gibbs]: 3.7 nM (6 of 6 replicates; controls 0 of 18)
- KLGGEQQSSTYEMDNVA, DVNTTYE, QHYSRLPLT [En_Gibbs]: 240 nM (3 of 6 replicates; controls 0 of 18)
- KFSGYKEMVNKDQESIA, GSHTIQE, QQYSRLPLA [En_Gibbs]: 2.1 nM (6 of 6 replicates; controls 1 of 18)
- KIDQWKLGESVNKNSVA, NASTRME, QQYHRLPLS [GP_Gibbs]: 620 pM (6 of 6 replicates; controls 2 of 18)
- MIAQALRGVGRNKNSVA, NAQTRES, QHYHRLPLS [En_HC]: 110 nM (2 of 6 replicates; controls 1 of 18)
- KLSQSNLYEWRNDMSVA, NASQRES, QQYHRLPLS [GP_Gibbs]: 1.4 nM (6 of 6 replicates; controls 1 of 18)
- KISQMSTIESITHNSVA, QTSTREK, QQYDRLPLS [En_HC]: 6.2 nM (6 of 6 replicates; controls 1 of 18)
- KVSEFMKGLTMRKDSIA, DNNTRGT, QQYDRLPLS [En_Gen]: 39 nM (6 of 6 replicates; controls 2 of 18)
- HMSQVTMYGYWNKNSVA, QTSTREE, QQYDRLPLI [En_HC]: 1.0 µM (6 of 6 replicates; controls 0 of 18)
- LVSQQELYEQRNKNSVA, DASQRLS, QQYHRLPLS [GP_Gibbs]: 1.1 nM (6 of 6 replicates; controls 2 of 18)
- IIAENSDDLTEKLNSIA, ETSQVTQ, QQYHLLPLA [En_Gibbs]: nd (0 of 6 replicates; controls 0 of 18)
- QLSSITGHMSMIKNNVA, EMETREE, QQYERLPLS [En_Gen]: 1.1 nM (6 of 6 replicates; controls 1 of 18)
- KLMQSMPYESRNANNVA, YASTREE, QQYHRLPLS [GP_Gibbs]: 870 pM (6 of 6 replicates; controls 0 of 18)
- TLGYNTMVESIKKNNVA, EMSTRVN, QQYVRLPLA [En_Gen]: 660 pM (6 of 6 replicates; controls 1 of 18)
- TISQLMNMGQFAINSVA, QASIRNH, QQYDRLPLI [En_Gen]: 29 nM (6 of 6 replicates; controls 1 of 18)
- KVSSFMRGLMMRKDSIA, DNETRSN, QQYDRLPLS [En_Gen]: 6.4 nM (6 of 6 replicates; controls 0 of 18)
- SLDMREPPYSALSGSVA, GSANRAI, QQYFRLPLS [En_Gibbs]: 860 pM (6 of 6 replicates; controls 1 of 18)
- HIQSESEHPYKDKNSMA, DAHCKAA, QQYFRLPLM [En_Gibbs]: 3.8 nM (6 of 6 replicates; controls 2 of 18)
- KLQLNVVDGWAMHNNIA, GDAHRAR, QQYYHLPLM [En_Gibbs]: 2.7 nM (2 of 6 replicates; controls 0 of 18)
- KLEFSVDYEDRNKNAVA, QASTREK, QQYHRLPLS [GP_Gibbs]: 1.3 nM (6 of 6 replicates; controls 0 of 18)
- KLRQSTVIESFQKNNVA, EMTTRES, QSYDRLPLS [En_HC]: 31 nM (6 of 6 replicates; controls 0 of 18)
- KLQWSWLYMSRNWNSVA, DASQRES, QQYHRLPLS [GP_Gibbs]: 5.8 nM (6 of 6 replicates; controls 0 of 18)
- KVAQGIFEGKRHSHNIA, EVSHLCD, QQYSRLPLE [En_Gibbs]: 1.8 nM (6 of 6 replicates; controls 0 of 18)
- HLLQTVMYGSTRKNSVA, HAQTREN, QQYHRLPLA [En_HC]: 390 nM (3 of 6 replicates; controls 0 of 18)
- KLSQSVNMTGKNKNSVA, ELTFRES, QQYERLPLS [En_HC]: 130 nM (6 of 6 replicates; controls 1 of 18)
- SVHFQGTTGEQNWESIA, ENSIRVE, QQYSHLPLL [En_Gibbs]: 34 nM (6 of 6 replicates; controls 0 of 18)
- KLMQMPEYESRNANSVA, NASQREE, QQYHRLPLS [GP_Gibbs]: 820 pM (6 of 6 replicates; controls 1 of 18)
- QIQFLDVQYGVKEQAIA, EENQRHQ, QHYFRLPLS [En_Gibbs]: 180 nM (4 of 6 replicates; controls 0 of 18)
- NVHALDAISQEFQNNVA, EQDCRDA, QQYFRLPLA [En_Gibbs]: 120 nM (6 of 6 replicates; controls 0 of 18)
- KLPLATMQELVSKNNVA, ELSTRGS, QQYHRLPLS [En_HC]: 26 nM (6 of 6 replicates; controls 1 of 18)
- KISQMVTYETTWHNAIA, QTSEREE, QQYHRLPLS [En_HC]: 35 nM (6 of 6 replicates; controls 0 of 18)
- KSQGSNLYESRNWNSVA, KASTRLQ, QQYHRLPLS [GP_Gibbs]: 4.0 nM (6 of 6 replicates; controls 0 of 18)
- DVHALMEHSSDLNYAIA, HASMRDA, QQYERLPLS [En_Gibbs]: 3.4 nM (6 of 6 replicates; controls 0 of 18)
- NISIEDVSEHNQANNVA, STDCRCD, QQYFMLPLM [En_Gibbs]: 25 nM (6 of 6 replicates; controls 1 of 18)
- SMETHSQDNRLDWSAVA, EAHTIYQ, QQYARLPLS [En_Gibbs]: 76 nM (6 of 6 replicates; controls 1 of 18)
- KLPQKWLYESRNKNNVA, SASCREQ, QQYHRLPLS [GP_Gibbs]: 1.8 nM (6 of 6 replicates; controls 0 of 18)
- KLSMMADYEDRNKNSVA, SASTRES, QQYHRLPLS [GP_Gibbs]: 2.3 nM (6 of 6 replicates; controls 1 of 18)

Excerpt, the first 8 entries:

{"CDR-L1": "TISQAAQQESHNKNSVA", "CDR-L2": "DLSVRGS", "CDR-L3": "QQYHRLPLS", "group": "En_HC", "apparent Kd": "1.8 nM", "detected": "6/6", "control signals": "0/18"}
{"CDR-L1": "KISGYLNKESKATNNVA", "CDR-L2": "EMVNRES", "CDR-L3": "QQYDRLPLS", "group": "En_HC", "apparent Kd": "17 nM", "detected": "6/6", "control signals": "2/18"}
{"CDR-L1": "HITMGMYVAGHHHSSIA", "CDR-L2": "QAETREK", "CDR-L3": "QQYDRLPLS", "group": "En_Gen", "apparent Kd": "34 nM", "detected": "6/6", "control signals": "3/18"}
{"CDR-L1": "RYQMDDIEGKGARNNIA", "CDR-L2": "DGAEVYR", "CDR-L3": "QQYARLPLT", "group": "En_Gibbs", "apparent Kd": "1.7 nM", "detected": "6/6", "control signals": "0/18"}
{"CDR-L1": "KLRMSTGYQSRNKDSIA", "CDR-L2": "DNSTRGR", "CDR-L3": "QQYHRLPLS", "group": "En_HC", "apparent Kd": "490 nM", "detected": "5/6", "control signals": "1/18"}
{"CDR-L1": "KLDQSDLMESRNWNAVA", "CDR-L2": "SASTREI", "CDR-L3": "QQYHRLPLS", "group": "GP_Gibbs", "apparent Kd": "4.3 nM", "detected": "6/6", "control signals": "0/18"}
{"CDR-L1": "KMQGSVMMLSRNVNSVA", "CDR-L2": "QASTREQ", "CDR-L3": "QQYHRLPLS", "group": "GP_Gibbs", "apparent Kd": "2.1 nM", "detected": "6/6", "control signals": "1/18"}
{"CDR-L1": "KISQNMGETQRNKNSVA", "CDR-L2": "EVSTVPY", "CDR-L3": "QQYWRLPLS", "group": "En_HC", "apparent Kd": "56 nM", "detected": "6/6", "control signals": "1/18"}

The range of this assay differs from that of the first round, and the authors advise against merging the two.
In the paper, a design with two or fewer of six values counts as a poor binder.
Of ten entries with the parent sequence, four were seen in most replicates (averages 2.2 nM to 240 nM), three in one and three in none, so single entries are noisy.
As a blank, each scFv also met three strains without target: over all light chain designs, 4% of these pairings were detected, typically at 430 nM and seldom below 38 nM. Also given: how often the same scFv was detected with the empty control strains.

From the AlphaSeq antibody data of Li et al. 2023 (doi:10.1038/s41467-023-39022-2), copy in the FLAb collection.